Calls of active or inactive are those of the source.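 How the source made its calls: active means inhibition above 30%; inactive means inhibition at or below 30%.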
Target: Sphingosine 1-phosphate receptor 1 (Homo sapiens) (UniProt P21453)
Test: S1P1 receptor antagonists, human, confirmation, counter-screen for OPRK1 antagonist project, cell-based, fluorescence (AID 652087)
Settings: Tango EDG-1-bla U2OS, beta-lactamase FRET, S1P antagonism; at 9 µM; hits give high values

Chains of the proteins cited; added tags and fusions are not shown.
UniProt P21453, whole entry, looked up: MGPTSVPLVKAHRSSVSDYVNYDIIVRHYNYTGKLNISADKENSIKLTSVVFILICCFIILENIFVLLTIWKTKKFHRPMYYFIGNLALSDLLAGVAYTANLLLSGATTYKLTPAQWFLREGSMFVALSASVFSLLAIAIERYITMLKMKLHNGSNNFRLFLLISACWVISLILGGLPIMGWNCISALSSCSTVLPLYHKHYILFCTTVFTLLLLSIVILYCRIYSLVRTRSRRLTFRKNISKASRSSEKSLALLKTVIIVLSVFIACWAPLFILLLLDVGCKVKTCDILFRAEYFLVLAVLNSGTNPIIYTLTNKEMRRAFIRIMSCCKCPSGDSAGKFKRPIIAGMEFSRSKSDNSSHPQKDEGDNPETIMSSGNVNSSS

Cc1csc2c(NC3CCN(Cc4ccccc4)CC3)ncnc12
inhibition: inactive: -10.5%

Reference: PubChem BioAssay AID652087 (The Scripps Research Institute Molecular Screening Center, 2013)
